Earlier results on one substance are cited in article PMC3285612.

One series addresses trypsin (Bos taurus) (UniProt P00760). To be noted: cited from earlier work.
Series [1] concerns the target chymotrypsin (Bos taurus) (UniProt P00766). Particulars: cited from earlier work.

Usually Ki stands for the equilibrium dissociation constant of an inhibitor or competing ligand from its target. For the substance BPTI (from UniProt P00974), the Ki with trypsin (Bos taurus) is 0.06 pM; in series [1], 9 nM.
